Data from patent US6506381B1, “Modified red blood cell that has surface molecules that neutralize chemical agents” (dated 2003).

Legend:
bacteria = experiment: bacteriocidal effect of hemin and analogues, bacteria not specified; conditions: bacteriocidal quantities, absence of oxygen
B. subtilis = experiment: killing of bacteria by addition of hemin; conditions: oxygen required
[1] = tested on: other gram positive bacteria; experiment: killing of bacteria by addition of hemin; conditions: oxygen required

With hemin the damage to bacteria (bacteria) was “did not damage bacteria”, the killing of bacteria (B. subtilis) was “has been demonstrated” and the killing of bacteria [1] was “has been demonstrated”.
